Experimental data taken from patent publication US8742134B2, “7-azoniabicyclo[2.2.1]heptane derivatives, methods of production, and pharmaceutical uses thereof” (dated 2014).

Tested on: methacholine-induced bronchoconstriction in rat
Test: Rat bronchoprotection protocol, MCh dose response (inhalation)
Details: 24 h post inhalation, nebulized drug solution

Question: How did the “Potency (ID50)” value turn out when `C[N+]1(C)C2CC[C@H]1[C@@H](OC(=O)[C@@](O)(c1ccccc1)C1CCCC1)C2` was run?
Answer: >100 µg/mL

Question: How did the “Potency (ID50)” value turn out when `C[N+]1(C)C2CC[C@H]1[C@H](OC(=O)[C@@](O)(c1ccccc1)C1CCCC1)C2` was run?
Answer: >100 µg/mL

Question: Which “Potency (ID50)” value does the source give for `C[N+]1(C)C2CC[C@@H]1[C@@H](OC(=O)[C@@](O)(c1ccccc1)C1CCCC1)C2` here?
Answer: >100 µg/mL

Question: How did the “Potency (ID50)” value turn out when `C[N+]1(C)C2CC[C@@H]1[C@H](OC(=O)[C@@](O)(c1ccccc1)C1CCCC1)C2` was run?
Answer: >100 µg/mL
